Our source for the Tmax values is PMC10215740, “Concentrations of Co-Administered Meropenem and Vancomycin in Spinal Tissues Relevant for the Treatment of Pyogenic Spondylodiscitis—An Experimental Microdialysis Study” (Antibiotics, 2023).

This data set in a line: Plasma and spinal tissue pharmacokinetics by microdialysis after single-dose co-administered i.v. meropenem and vancomycin. As to conditions: pigs n = 8, mean (95%CI). An excerpt:
Eight female pigs (Danish Landrace breed, weight 78–82 kg) were included. In general anaesthesia, microdialysis catheters were placed in the third cervical (C3) vertebral cancellous bone, the C3-C4 intervertebral disc, paravertebral muscle, and adjacent subcutaneous tissue. Plasma samples were obtained as a reference. Abiding by the recommendations of replacement, reduction, and refinement (the 3 Rs) when conducting animal studies, the data sampled in extrathecal spinal tissues in the present study are derived from animals where lower extremity data were reported previously. […] The dose and mode of administration used were in accordance with the clinical practice at our institution. Sampling was conducted for 8 h.
(Figure 3). The microdialysis catheters used were CMA 70 (membrane length 10 and 20 mm, molecular mass cut of 20 kDa; M Dialysis AB, Stockholm, Sweden). Through an anterolateral approach, the C2, C3, and C4 vertebrae were exposed. Using a 2 mm drill, a 25 mm drill hole was made into the C3 vertebra in which a 20 mm microdialysis catheter was placed. Afterward, with aid from a splitable microdialysis introducer (M Dialysis AB, Stockholm, Sweden), a 10 mm microdialysis catheter was positioned in the C3-C4 intervertebral disc, and a 20 mm microdialysis catheter was positioned in both the exposed paravertebral muscle and adjacent subcutaneous tissue. Correct positioning of the microdialysis catheters in the vertebra and the intervertebral disc was verified by fluoroscopy. The catheters were connected to precision pumps (CMA 107; M Dialysis AB, Stockholm, Sweden) and perfused with 0.9% NaCl solution at a flow rate of 1 μL/min.
After catheter placement, microdialysis sampling was initiated with a tissue-equilibration period of 20 min prior to the antibiotic intravenous administration. […] Microdialysates were collected at 30 min intervals for the first 4 h, and at 60 min intervals for the last 4 h, resulting in a total of 12 samples during an 8-h dosing interval. At the midpoint of each sampling interval, blood samples were collected from a central venous catheter for reference. The blood samples were stored at 5 °C for a maximum of 6 h before being centrifuged (room temperature, 3000 g, 10 min), and plasma aliquots were made. […] The recovery sample was later used for individual catheter calibration and calculation of absolute tissue concentrations. […]
The free drug concentration of meropenem in plasma was quantified using ultra-high performance liquid chromatography (UHPLC).

Marks after values point to notes of the source that are not given here.

On to `CN[C@H](CC(C)C)C(=O)N[C@H]1C(=O)N[C@@H](CC(N)=O)C(=O)N[C@H]2C(=O)N[C@H]3C(=O)N[C@H](C(=O)N[C@H](C(=O)O)c4cc(O)cc(O)c4-c4cc3ccc4O)[C@H](O)c3ccc(c(Cl)c3)Oc3cc2cc(c3O[C@@H]2O[C@H](CO)[C@@H](O)[C@H](O)[C@H]2O[C@H]2C[C@](C)(N)[C@H](O)[C@H](C)O2)Oc2ccc(cc2Cl)[C@H]1O` [Vancomycin, vancomycin], for which the Tmax (paravertebral muscle, microdialysis, single i.v. 1000 mg meropenem + 1000 mg vancomycin co-administered) was 126 (79; 172) min; the Tmax (plasma, single i.v. 1000 mg meropenem (10 min) + 1000 mg vancomycin (100 min) co-administered) is listed as 92 (45; 138) ^e min; the Tmax (subcutaneous tissue, microdialysis, single i.v. 1000 mg meropenem + 1000 mg vancomycin co-administered) was 135 (88; 181) min; the Tmax (vertebral cancellous bone, microdialysis, single i.v. 1000 mg meropenem + 1000 mg vancomycin co-administered) is given as 174 (128; 221) min.
